For 1 compound, IC50 results are on record in patent publication US9090621B2, “Tyrosine kinase inhibitors” (Principia Biopharma Inc., priority 2013, dated 2015).

Sequences of proteins named here, by UniProt entry; tags and fusion partners are left off. A change or cut given only in a name is not applied to a line headed by its entry.
UniProt Q06187: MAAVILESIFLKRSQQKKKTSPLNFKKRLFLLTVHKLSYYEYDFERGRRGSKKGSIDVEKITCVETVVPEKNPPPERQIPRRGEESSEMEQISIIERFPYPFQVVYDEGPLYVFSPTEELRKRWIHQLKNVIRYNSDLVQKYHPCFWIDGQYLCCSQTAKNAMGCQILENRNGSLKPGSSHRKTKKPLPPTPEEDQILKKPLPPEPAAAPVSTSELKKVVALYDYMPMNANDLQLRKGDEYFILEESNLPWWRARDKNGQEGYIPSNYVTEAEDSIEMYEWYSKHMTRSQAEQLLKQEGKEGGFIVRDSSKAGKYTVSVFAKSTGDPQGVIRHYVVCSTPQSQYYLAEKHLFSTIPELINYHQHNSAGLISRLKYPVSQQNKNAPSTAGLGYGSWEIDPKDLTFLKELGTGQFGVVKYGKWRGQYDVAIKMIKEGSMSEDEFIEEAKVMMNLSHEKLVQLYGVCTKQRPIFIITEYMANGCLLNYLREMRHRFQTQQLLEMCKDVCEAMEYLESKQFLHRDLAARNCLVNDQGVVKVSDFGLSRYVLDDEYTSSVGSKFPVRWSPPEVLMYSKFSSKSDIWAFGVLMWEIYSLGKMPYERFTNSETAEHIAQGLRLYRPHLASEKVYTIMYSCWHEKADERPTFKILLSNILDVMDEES

In the assay the target is human recombinant Btk (Homo sapiens (Human), UniProt Q06187). In words: biochemical.
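Further: Read-out is the quantity of phosphorylated substrate product formed, and IC50 reflects inhibition of Btk kinase activity.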

Usually IC50 stands for the point on the concentration scale where inhibition reaches its midpoint. For the compound `CC(C)C=C(C#N)C(=O)N[C@@H](C)Cn1nc(-c2ccc(Oc3ccccc3)cc2F)c2c(N)ncnc21` [Example 183B, (S)-N-(1-(4-amino-3-(2-fluoro-4-phenoxyphenyl)-1H-pyrazolo[3,4-d]pyrimidin-1-yl)propan-2-yl)-2-cyano-4-methylpent-2-enamide], the IC50 is 3 nM.
